Sequences of proteins named here, by UniProt entry; tags and fusion partners are left off.
UniProt Q00535, whole entry, species assumed: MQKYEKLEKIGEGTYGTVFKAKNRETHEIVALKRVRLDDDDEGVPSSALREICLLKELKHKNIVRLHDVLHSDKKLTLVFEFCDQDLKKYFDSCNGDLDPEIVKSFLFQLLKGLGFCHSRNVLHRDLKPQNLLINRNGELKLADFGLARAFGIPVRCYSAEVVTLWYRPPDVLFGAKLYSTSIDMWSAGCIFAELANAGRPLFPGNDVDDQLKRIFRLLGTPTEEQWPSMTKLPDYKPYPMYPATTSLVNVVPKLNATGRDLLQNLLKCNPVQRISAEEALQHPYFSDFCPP

According to paper PMC7281298, “Exploring Kinase Inhibition Properties of 9H-pyrimido[5,4-b]- and [4,5-b]indol-4-amine Derivatives” (Pharmaceuticals, 2020):

Biological target: CDK5/p25 (Homo sapiens, UniProt Q00535)
Assay: Kinase inhibition assay, CDK5/p25
Format: biochemical
Method: The inhibitory potency of the synthesized pyrimido[4,5-b]indol-4-amines and pyrimido[5,4-b]indol-4-amines towards CDK5/p25, CK1δ/ε, DYRK1A, and GSK-3α/β was investigated according preceding procedures.
Buffers, kinase preparations, and assays were performed as described in ref. [12, 13, 14] according methods initially published in previous works.

## COc1ccc2c(c1)[nH]c1c(C)nccc12 [Compound 11a, harmine, reference compound]
  IC50: > 10 µM
